Sequences of proteins named here, by UniProt entry; tags and fusion partners are left off. Residues count along the entry.
UniProt P08246, 30-247 limits assumed: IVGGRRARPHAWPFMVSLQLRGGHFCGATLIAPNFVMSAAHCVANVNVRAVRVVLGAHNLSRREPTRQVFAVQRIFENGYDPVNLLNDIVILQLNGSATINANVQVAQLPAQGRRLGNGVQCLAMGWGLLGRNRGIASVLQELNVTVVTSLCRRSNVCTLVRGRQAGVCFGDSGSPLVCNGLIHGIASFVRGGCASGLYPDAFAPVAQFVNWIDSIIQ

In US9657015B2, “Substituted bicyclic dihydropyrimidinones and their use as inhibitors of neutrophil elastase activity” (Boehringer Ingelheim International GmbH, priority 2014, dated 2017):

Tests used:
[1] = Aqueous solubility (High Throughput Method); conditions: McIlvaine buffer pH 6.8, 2.5% DMSO, 24 h shaking
[2] = Metabolic stability with human liver microsomes; conditions: pooled human liver microsomes, 37° C., 1 μM test compound, 1 mg/ml microsomal protein, NADPH
Caco-2 cells = test: Drug transport across human Caco-2 cells; conditions: Caco-2 monolayers, pH 7.2, 37° C.; for PEAB: apical-to-basal; for PEBA: basal-to-apical
[3] = target: neutrophil elastase in human plasma (Homo sapiens (Human), UniProt P08246); test: Neutrophil elastase inhibitory activity in human plasma; type: biochemical; conditions: human plasma assay (zymosan-stimulated blood plasma), substrate 250 μM, pH 7.5
[4] = target: Human neutrophil elastase (Homo sapiens (Human), UniProt P08246); test: Human Neutrophil Elastase Assay; type: biochemical; conditions: substrate MeOSuc-Ala-Ala-Pro-Val-AMC 250 μM, pH 7.5, room temperature

Row | Aqueous solubility [1] | t1/2 INVITRO [2] | PEAB (Caco-2 cells) | PEBA (Caco-2 cells) | IC50 [3] | IC50 [4] | Compound
1 | 80 µg/mL | >2.17 h | 6.7 ×10⁻⁶ cm/s | 81 ×10⁻⁶ cm/s | – | – | CNC(=O)c1cc(C#N)ccc1C1C2=C(CCN(C)C2=O)N(c2cccc(C(F)(F)F)c2)C(=O)N1C (stereo not drawn)
2 | – | – | – | – | 6.7 nM | 2.7 nM | CN1CCC2=C(C1=O)C(c1ccc(C#N)cc1)N(CC(=O)NCCO)C(=O)N2c1cccc(C(F)(F)F)c1 (stereo not drawn)
3 | 86 µg/mL | – | 11 ×10⁻⁶ cm/s | 110 ×10⁻⁶ cm/s | 8.1 nM | 2 nM | CN(C)C(=O)c1cc(C#N)ccc1C1C2=C(CCN(C)C2=O)N(c2cccc(C(F)(F)F)c2)C(=O)N1C (stereo not drawn)

Row | Compound | Aqueous solubility [1] | t1/2 INVITRO [2] | PEAB (Caco-2 cells) | PEBA (Caco-2 cells) | IC50 [3] | IC50 [4]
4 | CC1CN(C(=O)CN2C(=O)N(c3cccc(C(F)(F)F)c3)C3=C(C(=O)N(C)CC3)C2c2ccc(C#N)cc2)CC1C (stereo not drawn) | – | – | – | – | 4.3 nM | –
